In test [1] the target is reuptake of noradrenaline (NA) in synaptosomes (Rattus norvegicus, UniProt Q9WTR4). Kind of test: inhibition of NA reuptake in synaptosomes. Particulars: read-out: NA-uptake IC50, 3H-NA.
In test [2] the target is reuptake of dopamine (DA) in synaptosomes (Rattus norvegicus, UniProt P23977). Kind of test: inhibition of DA reuptake in synaptosomes. Particulars: read-out: DA-uptake IC50, 3H-DA.
For test [3], the target named is reuptake of serotonine (5-HT) in synaptosomes (Rattus norvegicus, UniProt P31652). Kind of test: inhibition of 5-HT reuptake in synaptosomes. The following applies: read-out: 5-HT-uptake IC50, 3H-5-HT.

Protein sequences, listed by entry. Tags and fused reporters are not part of them. Residues count along the entry.
UniProt Q9WTR4, 1-597: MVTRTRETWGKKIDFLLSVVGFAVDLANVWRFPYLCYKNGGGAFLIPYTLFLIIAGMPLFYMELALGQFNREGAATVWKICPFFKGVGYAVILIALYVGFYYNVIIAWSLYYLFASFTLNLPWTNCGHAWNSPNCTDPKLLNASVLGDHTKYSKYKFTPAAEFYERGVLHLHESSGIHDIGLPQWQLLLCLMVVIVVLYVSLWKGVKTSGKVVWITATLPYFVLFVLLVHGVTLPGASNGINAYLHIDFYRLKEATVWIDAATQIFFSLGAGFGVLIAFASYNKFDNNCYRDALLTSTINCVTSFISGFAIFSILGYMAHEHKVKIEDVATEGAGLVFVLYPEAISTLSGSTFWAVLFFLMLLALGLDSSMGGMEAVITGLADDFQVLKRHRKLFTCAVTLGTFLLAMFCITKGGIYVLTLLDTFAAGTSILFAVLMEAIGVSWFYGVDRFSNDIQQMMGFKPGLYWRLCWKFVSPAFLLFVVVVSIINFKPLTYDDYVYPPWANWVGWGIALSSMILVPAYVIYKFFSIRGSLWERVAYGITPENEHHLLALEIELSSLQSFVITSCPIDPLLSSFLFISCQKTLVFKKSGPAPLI
UniProt P23977, whole entry, looked up: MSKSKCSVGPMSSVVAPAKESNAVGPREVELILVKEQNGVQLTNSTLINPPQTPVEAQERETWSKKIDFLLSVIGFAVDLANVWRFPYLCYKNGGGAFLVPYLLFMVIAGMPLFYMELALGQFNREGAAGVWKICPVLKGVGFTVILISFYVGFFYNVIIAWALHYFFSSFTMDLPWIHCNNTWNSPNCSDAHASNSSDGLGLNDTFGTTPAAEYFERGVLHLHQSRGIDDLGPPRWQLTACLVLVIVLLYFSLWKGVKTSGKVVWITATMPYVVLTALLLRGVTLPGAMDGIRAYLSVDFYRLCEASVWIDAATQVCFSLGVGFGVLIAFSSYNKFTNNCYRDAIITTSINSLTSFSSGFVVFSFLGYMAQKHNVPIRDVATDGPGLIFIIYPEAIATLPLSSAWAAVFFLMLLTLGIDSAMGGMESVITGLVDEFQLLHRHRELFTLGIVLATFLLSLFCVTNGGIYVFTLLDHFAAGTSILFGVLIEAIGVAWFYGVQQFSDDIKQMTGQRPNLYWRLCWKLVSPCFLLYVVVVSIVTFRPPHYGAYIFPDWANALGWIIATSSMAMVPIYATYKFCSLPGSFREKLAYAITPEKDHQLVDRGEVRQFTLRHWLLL
UniProt P31652, whole entry, looked up: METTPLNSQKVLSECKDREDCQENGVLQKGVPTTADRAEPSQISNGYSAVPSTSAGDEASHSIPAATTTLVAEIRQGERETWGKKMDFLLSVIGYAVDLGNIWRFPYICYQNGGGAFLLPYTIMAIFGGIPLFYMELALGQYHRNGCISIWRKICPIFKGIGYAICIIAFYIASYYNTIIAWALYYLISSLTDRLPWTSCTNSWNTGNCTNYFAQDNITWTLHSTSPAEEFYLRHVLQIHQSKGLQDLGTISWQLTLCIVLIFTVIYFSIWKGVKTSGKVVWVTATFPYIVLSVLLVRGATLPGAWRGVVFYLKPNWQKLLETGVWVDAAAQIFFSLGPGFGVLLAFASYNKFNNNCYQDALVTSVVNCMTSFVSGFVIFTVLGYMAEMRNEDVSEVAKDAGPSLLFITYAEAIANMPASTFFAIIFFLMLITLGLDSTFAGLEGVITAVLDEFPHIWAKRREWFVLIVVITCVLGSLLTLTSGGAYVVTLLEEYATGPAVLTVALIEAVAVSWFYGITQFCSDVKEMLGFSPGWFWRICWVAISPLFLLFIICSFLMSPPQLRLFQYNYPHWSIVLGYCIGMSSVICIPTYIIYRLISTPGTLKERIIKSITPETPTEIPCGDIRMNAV

For five compounds, IC50 results are on record in patent US20100298380A1, “N-ARYL-N-PIPERIDIN-4-YLMETHYL-AMIDE DERIVATIVES AND THIER USE AS MONOAMINE NEUROTRANSMITTER RE-UPTAKE INHIBITORS” (published 2010).

pIC50: −log10 of the molar value.

Take `CCC(=O)N(CC1CCN(CCn2c(=O)n(C3=CCCC3)c3ccccc32)CC1)c1ccc(Cl)c(Cl)c1`: the pIC50 is 7.44 in test [1], 7.89 in test [2] and 6.44 in test [3].

As to `C=C(C)n1c(=O)n(CCN2CCC(CN(C(=O)CC)c3ccc(Cl)c(Cl)c3)CC2)c2ccccc21`, the pIC50 in test [1] was 7.70; in test [2] it was 7.82; in test [3], 5.92.

Consider `C=C(C)n1c(=O)n(CCN2CCC(CN(C(=O)CC)c3cccc(Cl)c3)CC2)c2ccccc21`, for which the pIC50 in test [1] is 6.80; in test [2], 7.32; in test [3], 5.80.

In the case of `C=C(C)n1c(=O)n(CCN2CCC(CN(C(C)=O)c3ccc(Cl)c(Cl)c3)CC2)c2ccccc21`, the pIC50 is 6.85 in test [1], 6.47 in test [2] and < 6.00 in test [3].

Take `C=C(C)n1c(=O)n(CCN2CCC(CN(C(=O)COC)c3ccc(Cl)c(Cl)c3)CC2)c2ccccc21`: the pIC50 in test [1] is 6.57; in test [2], 6.62; in test [3], < 6.00.

One may read the pIC50 as −log10 of the IC50, conventionally taken in molar units.
